# ChEMBL document CHEMBL2021835 (J Med Chem, 2012)
# Columns and labels:
# [1] = Selectivity ratio of Ki for STAT3 to Ki for STAT5b-SH2 domain
# [2] = Selectivity ratio of Ki for STAT1 to Ki for STAT5b-SH2 domain
Ratio Ki [1],Ratio Ki [2],Structure (SMILES)
2,2,CN(CC(=O)N(Cc1ccc(C2CCCCC2)cc1)c1ccc(C(=O)O)c(O)c1)S(=O)(=O)c1ccc(-c2ccccc2)cc1
2,2,Cc1ccc(S(=O)(=O)N(CC(=O)N(Cc2ccccc2)c2ccc(C(=O)O)c(O)c2)C(=O)OC(C)(C)C)cc1
